According to patent publication US7192924B2, “Corticotropin releasing factor 2 receptor agonists” (priority 2002, dated 2007):
Like-named read-outs stand apart in the source and are kept apart here.

Experiments:
CRF2R = biological target: T1, CRF2R (Homo sapiens, UniProt Q13324); assay: CRF2R agonist activity (EC50, Emax), called comparative CRF binding; assay type: cell-based
T1 sequence (Q13324 1-411): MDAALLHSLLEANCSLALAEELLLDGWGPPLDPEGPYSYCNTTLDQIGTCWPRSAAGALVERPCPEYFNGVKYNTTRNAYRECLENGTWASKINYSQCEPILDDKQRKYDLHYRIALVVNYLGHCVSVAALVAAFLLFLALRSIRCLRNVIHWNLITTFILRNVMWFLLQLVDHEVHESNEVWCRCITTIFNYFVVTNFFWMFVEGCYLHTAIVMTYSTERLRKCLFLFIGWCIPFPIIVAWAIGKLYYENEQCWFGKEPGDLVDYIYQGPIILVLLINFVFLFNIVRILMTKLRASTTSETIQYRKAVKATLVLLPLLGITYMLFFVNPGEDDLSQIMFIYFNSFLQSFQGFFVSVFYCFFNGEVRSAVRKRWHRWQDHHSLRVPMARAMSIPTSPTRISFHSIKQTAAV
Method in brief: (§1)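 Cells expressing only CRF1R or CRF2R (recombinant, or with the other receptor disabled or its signal subtracted) were treated with peptide or vehicle control. Activation was read as cAMP induction in cell lysates or via a cAMP-responsive-element reporter gene.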

CRF1R = biological target: T2, CRF1R (Homo sapiens, UniProt P34998); assay: CRF1R agonist activity (EC50, Emax), called comparative CRF binding; assay type: cell-based
T2 sequence (P34998 24-415): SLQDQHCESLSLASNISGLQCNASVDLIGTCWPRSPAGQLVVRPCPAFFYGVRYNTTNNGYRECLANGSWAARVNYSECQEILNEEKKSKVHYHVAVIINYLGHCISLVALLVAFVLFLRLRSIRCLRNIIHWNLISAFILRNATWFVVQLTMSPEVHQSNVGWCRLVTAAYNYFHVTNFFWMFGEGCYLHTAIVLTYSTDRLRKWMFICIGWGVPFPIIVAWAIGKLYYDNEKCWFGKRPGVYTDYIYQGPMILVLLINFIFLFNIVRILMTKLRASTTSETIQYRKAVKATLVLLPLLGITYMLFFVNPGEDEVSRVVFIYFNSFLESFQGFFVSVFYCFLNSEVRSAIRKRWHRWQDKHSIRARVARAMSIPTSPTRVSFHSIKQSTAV
Method in brief: as §1

Structure (SMILES)	EC50 (CRF2R) [nM]	EC50 (CRF1R) [nM]	EC50 (CRF2R; read-out: CRF2R EC50) [nM]	EC50 (CRF1R; read-out: CRF1R EC50) [nM]
CC[C@H](C)[C@H](NC(=O)[C@@H](NC(=O)[C@H](CC(=O)O)NC(=O)[C@H](CC(C)C)NC(=O)[C@H](CC(C)C)NC(=O)[C@H](CC(C)C)NC(=O)[C@H](CCCNC(=N)N)NC(=O)[C@H](CC(N)=O)NC(=O)[C@H](CC(N)=O)NC(=O)[C@H](C)NC(=O)[C@H](C)NC(=O)[C@H](CCC(N)=O)NC(=O)[C@H](CCC(N)=O)NC(=O)[C@H](CCCCN)NC(=O)[C@H](CCC(=O)O)NC(=O)[C@H](CCCCN)NC(=O)[C@H](CCC(=O)O)NC(=O)[C@H](CCC(N)=O)NC(=O)[C@H](CCCCN)NC(=O)[C@H](CCC(=O)O)NC(=O)[C@@H](NC(=O)[C@H](CCC(=O)O)NC(=O)[C@@H](NC(=O)[C@H](CCSC)NC(=O)[C@H](CCCCN)NC(=O)[C@H](CCCNC(=N)N)NC(=O)[C@H](CC(C)C)NC(=O)[C@H](CC(C)C)NC(=O)[C@H](C)NC(=O)[C@H](Cc1ccc(O)cc1)NC(=O)[C@@H]1CCCN1C(=O)[C@H](CC(C)C)NC(=O)[C@H](CC(=O)O)NC(=O)[C@@H](NC(=O)[C@H](CO)NC(=O)[C@@H](NC(=O)[C@@H]1CCCN1C(=O)[C@@H]1CCCN1C(=O)CNC(=O)[C@@H]1CCC(=O)N1)[C@@H](C)CC)[C@@H](C)CC)[C@@H](C)CC)[C@@H](C)CC)[C@@H](C)O)C(N)=O [compound 309]	5.55	108		
CC[C@H](C)[C@H](NC(=O)[C@@H](NC(=O)[C@H](CC(=O)O)NC(=O)[C@H](CC(C)C)NC(=O)[C@H](CC(C)C)NC(=O)[C@H](CC(C)C)NC(=O)[C@H](CCCNC(=N)N)NC(=O)[C@H](CC(N)=O)NC(=O)[C@H](CC(N)=O)NC(=O)[C@H](C)NC(=O)[C@H](C)NC(=O)[C@H](CCC(N)=O)NC(=O)[C@H](CCC(N)=O)NC(=O)[C@H](CCCCN)NC(=O)[C@H](CCC(=O)O)NC(=O)[C@H](CCCCN)NC(=O)[C@H](CCC(=O)O)NC(=O)[C@H](CCC(N)=O)NC(=O)[C@H](CCCCN)NC(=O)[C@H](CCC(=O)O)NC(=O)[C@@H](NC(=O)[C@H](CCC(=O)O)NC(=O)[C@@H](NC(=O)[C@H](CCSC)NC(=O)[C@H](CCCCN)NC(=O)[C@H](CCCNC(=N)N)NC(=O)[C@H](CC(C)C)NC(=O)[C@H](CC(C)C)NC(=O)[C@H](Cc1ccccc1)NC(=O)[C@H](Cc1ccc(O)cc1)NC(=O)[C@@H]1CCCN1C(=O)[C@H](CC(C)C)NC(=O)[C@H](CC(=O)O)NC(=O)[C@@H](NC(=O)[C@H](CO)NC(=O)[C@@H](NC(=O)[C@@H]1CCCN1C(=O)[C@@H]1CCCN1C(=O)CNC(=O)[C@@H]1CCC(=O)N1)[C@@H](C)CC)[C@@H](C)CC)[C@@H](C)CC)[C@@H](C)CC)[C@@H](C)O)C(N)=O [compound 220]			4.1	63.6
CC[C@H](C)[C@H](NC(=O)[C@@H](NC(=O)[C@H](CC(=O)O)NC(=O)[C@H](CC(C)C)NC(=O)[C@H](CC(C)C)NC(=O)[C@H](CC(C)C)NC(=O)[C@H](CCCNC(=N)N)NC(=O)[C@H](CC(N)=O)NC(=O)[C@H](CC(N)=O)NC(=O)[C@H](C)NC(=O)[C@H](C)NC(=O)[C@H](CCC(N)=O)NC(=O)[C@H](CCC(N)=O)NC(=O)[C@H](CCCCN)NC(=O)[C@H](CCC(=O)O)NC(=O)[C@H](CCCCN)NC(=O)[C@H](CCC(=O)O)NC(=O)[C@H](CCC(N)=O)NC(=O)[C@H](CCCCN)NC(=O)[C@H](CCC(=O)O)NC(=O)[C@@H](NC(=O)[C@H](CCC(=O)O)NC(=O)[C@@H](NC(=O)[C@H](CCSC)NC(=O)[C@H](CCCCN)NC(=O)[C@H](CCCNC(=N)N)NC(=O)[C@H](CC(C)C)NC(=O)[C@H](CC(C)C)NC(=O)CNC(=O)[C@@H](NC(=O)[C@@H]1CCCN1C(=O)[C@@H](NC(=O)[C@H](CC(=O)O)NC(=O)[C@H](CC(C)C)NC(=O)[C@H](CO)NC(=O)[C@H](CC(C)C)NC(=O)[C@@H](NC(=O)[C@@H](NC(=O)CNC(=O)[C@@H]1CCC(=O)N1)[C@@H](C)CC)C(C)C)C(C)C)[C@@H](C)CC)[C@@H](C)CC)[C@@H](C)CC)[C@@H](C)O)C(N)=O [compound 153]			9.28	> 100
CC[C@H](C)[C@H](NC(=O)[C@@H](NC(=O)[C@H](CC(=O)O)NC(=O)[C@H](CC(C)C)NC(=O)[C@H](CC(C)C)NC(=O)[C@H](CC(C)C)NC(=O)[C@H](CCCNC(=N)N)NC(=O)[C@H](CC(N)=O)NC(=O)[C@H](CC(N)=O)NC(=O)[C@H](C)NC(=O)[C@H](C)NC(=O)[C@H](CCC(N)=O)NC(=O)[C@H](CCC(N)=O)NC(=O)[C@H](CCCCN)NC(=O)[C@H](CCC(=O)O)NC(=O)[C@H](CCCCN)NC(=O)[C@H](CCC(=O)O)NC(=O)[C@H](CCC(N)=O)NC(=O)[C@H](CCCCN)NC(=O)[C@H](CCC(=O)O)NC(=O)[C@@H](NC(=O)[C@H](CCC(=O)O)NC(=O)[C@@H](NC(=O)[C@H](CCSC)NC(=O)[C@H](CCCCN)NC(=O)[C@H](CCCNC(=N)N)NC(=O)[C@H](CC(C)C)NC(=O)[C@H](CC(C)C)NC(=O)CNC(=O)[C@@H](NC(=O)[C@H](CO)NC(=O)[C@H](CC(C)C)NC(=O)[C@H](CC(=O)O)NC(=O)[C@@H](NC(=O)[C@H](CO)NC(=O)[C@@H](NC(=O)[C@@H]1CCCN1C(=O)[C@@H]1CCCN1C(=O)CNC(=O)[C@@H]1CCC(=O)N1)[C@@H](C)CC)[C@@H](C)CC)[C@@H](C)CC)[C@@H](C)CC)[C@@H](C)CC)[C@@H](C)O)C(N)=O [compound 25]	81	677		
CC[C@H](C)[C@H](NC(=O)[C@H](CCCNC(=N)N)NC(=O)[C@H](C)NC(=O)[C@H](CC(C)C)NC(=O)[C@H](CC(C)C)NC(=O)[C@H](CCCNC(=N)N)NC(=O)[C@H](C)NC(=O)[C@H](CC(N)=O)NC(=O)[C@H](CC(N)=O)NC(=O)[C@H](C)NC(=O)[C@H](C)NC(=O)[C@H](CCC(N)=O)NC(=O)[C@H](CCC(N)=O)NC(=O)[C@H](CCCCN)NC(=O)[C@H](CCC(=O)O)NC(=O)[C@H](CCCCN)NC(=O)[C@H](CCC(=O)O)NC(=O)[C@H](CCC(N)=O)NC(=O)[C@H](CCCCN)NC(=O)[C@H](CCC(=O)O)NC(=O)[C@@H](NC(=O)[C@H](CCC(=O)O)NC(=O)[C@@H](NC(=O)[C@@H](NC(=O)[C@H](CCCCN)NC(=O)[C@H](CCCNC(=N)N)NC(=O)[C@H](CC(C)C)NC(=O)[C@H](CC(C)C)NC(=O)[C@@H](NC(=O)[C@@H](NC(=O)[C@@H]1CCCN1C(=O)[C@H](CC(C)C)NC(=O)[C@H](CC(=O)O)NC(=O)[C@@H](NC(=O)[C@H](CO)NC(=O)[C@@H](NC(=O)[C@@H]1CCCN1C(=O)[C@@H]1CCCN1C(=O)CNC(=O)[C@@H]1CCC(=O)N1)[C@@H](C)CC)[C@@H](C)CC)[C@@H](C)CC)[C@@H](C)CC)C(C)C)[C@@H](C)CC)[C@@H](C)CC)C(N)=O [compound 295]			55	≥ 1000
CC[C@H](C)[C@H](NC(=O)[C@@H](NC(=O)[C@H](C)NC(=O)[C@H](CC(C)C)NC(=O)[C@H](CC(C)C)NC(=O)[C@H](CC(C)C)NC(=O)[C@H](C)NC(=O)[C@H](CC(N)=O)NC(=O)[C@H](CC(N)=O)NC(=O)[C@H](C)NC(=O)[C@H](C)NC(=O)[C@H](CCC(N)=O)NC(=O)[C@H](CCC(N)=O)NC(=O)[C@H](CCCCN)NC(=O)[C@H](CCC(=O)O)NC(=O)[C@H](CCCCN)NC(=O)[C@H](CCC(=O)O)NC(=O)[C@H](CCC(N)=O)NC(=O)[C@H](CCCCN)NC(=O)[C@H](CCC(=O)O)NC(=O)[C@@H](NC(=O)[C@H](CCC(=O)O)NC(=O)[C@@H](NC(=O)[C@H](CCSC)NC(=O)[C@H](CCCCN)NC(=O)[C@H](CCCNC(=N)N)NC(=O)[C@H](CC(C)C)NC(=O)[C@H](CC(C)C)NC(=O)[C@H](CCC(=O)O)NC(=O)[C@H](CC(C)C)NC(=O)[C@H](CO)NC(=O)[C@H](CC(C)C)NC(=O)[C@H](CC(=O)O)NC(=O)[C@@H](NC(=O)[C@H](CO)NC(=O)[C@@H](NC(=O)[C@@H]1CCCN1C(=O)[C@@H]1CCCN1C(=O)CNC(=O)[C@@H]1CCC(=O)N1)[C@@H](C)CC)[C@@H](C)CC)[C@@H](C)CC)[C@@H](C)CC)[C@@H](C)O)C(N)=O [compound 30]	18.7	100		
CC[C@H](C)[C@H](NC(=O)[C@@H](NC(=O)[C@H](C)NC(=O)[C@H](CC(C)C)NC(=O)[C@H](CC(C)C)NC(=O)[C@H](CC(C)C)NC(=O)[C@H](C)NC(=O)[C@H](CC(N)=O)NC(=O)[C@H](CC(N)=O)NC(=O)[C@H](C)NC(=O)[C@H](C)NC(=O)[C@H](CCC(N)=O)NC(=O)[C@H](CCC(N)=O)NC(=O)[C@H](CCCCN)NC(=O)[C@H](CCC(=O)O)NC(=O)[C@H](CCCCN)NC(=O)[C@H](CCC(=O)O)NC(=O)[C@H](CCC(N)=O)NC(=O)[C@H](CCCCN)NC(=O)[C@H](CCC(=O)O)NC(=O)[C@@H](NC(=O)[C@H](CCC(=O)O)NC(=O)[C@@H](NC(=O)[C@H](CCSC)NC(=O)[C@H](CCCCN)NC(=O)[C@H](CCCNC(=N)N)NC(=O)[C@H](CC(C)C)NC(=O)[C@H](CC(C)C)NC(=O)[C@H](Cc1c[nH]cn1)NC(=O)[C@H](CC(C)C)NC(=O)[C@@H]1CCCN1C(=O)[C@H](CC(C)C)NC(=O)[C@H](CC(=O)O)NC(=O)[C@@H](NC(=O)[C@H](CO)NC(=O)[C@@H](NC(=O)[C@@H]1CCCN1C(=O)[C@@H]1CCCN1C(=O)CNC(=O)[C@@H]1CCC(=O)N1)[C@@H](C)CC)[C@@H](C)CC)[C@@H](C)CC)[C@@H](C)CC)[C@@H](C)O)C(N)=O [compound 241]	12.6	308		
